In publication PMC4498498:

Tests used:
CC(C)=O = experiment: purified protein; conditions: 0.2 mM NADPH, 50 mM Tris-HCl pH 7.5, 1 mM DTT, 25°C
CCC(C)=O = experiment: purified protein; conditions: 0.2 mM NADPH, 50 mM Tris-HCl pH 7.5, 1 mM DTT, 25°C

| Substance | Km (CC(C)=O) | kcat (CC(C)=O) | kcat/Km (CC(C)=O) | Km (CCC(C)=O) | kcat (CCC(C)=O) | kcat/Km (CCC(C)=O) |
| --- | --- | --- | --- | --- | --- | --- |
| CaADH (Clostridium autoethanogenum DSM 10061; S199A) | 900 ± 100 µM | 60 s⁻¹ | 67000 M⁻¹ s⁻¹ | 800 ± 100 µM | 46 s⁻¹ | 61000 M⁻¹ s⁻¹ |
| CaADH (Clostridium autoethanogenum DSM 10061; G198D/P201E/S199V) | 600 ± 100 µM | 39 ± 1 s⁻¹ | – | – | – | – |
| CaADH (Clostridium autoethanogenum DSM 10061; S199R) | 1100 ± 200 µM | 89 s⁻¹ | 81000 M⁻¹ s⁻¹ | – | – | – |
